Test results reported in ChEMBL document CHEMBL1153119, “Design and synthesis of orally-active and selective azaindane 5HT2c agonist for the treatment of obesity” (Bioorg Med Chem Lett, 2010).

Amino acid sequences for entries named in this document (tags omitted).
UniProt P41595, whole entry: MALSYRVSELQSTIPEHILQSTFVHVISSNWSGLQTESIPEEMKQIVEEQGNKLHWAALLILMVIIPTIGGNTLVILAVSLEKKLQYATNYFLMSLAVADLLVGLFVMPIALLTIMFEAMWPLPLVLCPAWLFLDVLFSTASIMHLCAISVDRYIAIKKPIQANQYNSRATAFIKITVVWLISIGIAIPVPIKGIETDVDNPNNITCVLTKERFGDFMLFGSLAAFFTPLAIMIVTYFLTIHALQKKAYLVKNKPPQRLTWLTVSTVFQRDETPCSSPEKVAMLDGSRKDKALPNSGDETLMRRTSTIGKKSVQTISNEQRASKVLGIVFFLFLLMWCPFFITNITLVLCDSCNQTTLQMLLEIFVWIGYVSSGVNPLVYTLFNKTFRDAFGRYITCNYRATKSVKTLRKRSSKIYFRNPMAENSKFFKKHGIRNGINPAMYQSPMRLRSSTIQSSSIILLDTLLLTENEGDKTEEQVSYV

Biological target: 5-hydroxytryptamine receptor 2B (Homo sapiens, UniProt P41595)
Test: Agonist activity against human 5HT2B receptor by FLIPR assay relative to 5HT
Assay type: functional

| Structure (SMILES) | Activity [%] |
| --- | --- |
| Clc1ccccc1O[C@@H]1CCCc2ccc(N3CCNCC3)nc21 | 20 |
| Clc1ccccc1O[C@H]1CCCc2ccc(N3CCNCC3)nc21 | 61 |
